Biological target: µ opioid receptor (Rattus norvegicus, UniProt P33535)
Assay: Binding affinity with a µ opioid receptor ([3H]-DAMGO membrane binding)
Details: read-out: µ Ki value; rat forebrain membrane fraction, 1nM [3H]-DAMGO, 25°C 90 minutes

The chains behind the UniProt entries cited, without tags or fusion partners.
UniProt P33535, whole entry: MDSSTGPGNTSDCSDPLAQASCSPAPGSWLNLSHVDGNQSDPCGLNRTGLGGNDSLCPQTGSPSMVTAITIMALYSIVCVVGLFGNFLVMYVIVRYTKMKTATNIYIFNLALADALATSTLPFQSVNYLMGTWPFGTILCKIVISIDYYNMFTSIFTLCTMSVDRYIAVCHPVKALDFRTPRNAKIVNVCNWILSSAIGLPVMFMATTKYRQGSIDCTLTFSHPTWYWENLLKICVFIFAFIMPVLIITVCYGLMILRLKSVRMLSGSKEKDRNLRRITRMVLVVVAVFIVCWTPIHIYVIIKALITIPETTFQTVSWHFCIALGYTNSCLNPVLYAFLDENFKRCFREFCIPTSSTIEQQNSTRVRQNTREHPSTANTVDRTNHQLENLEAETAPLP

Cc1ccc(CN2CCC3(CC2)C(=O)NCN3c2ccccc2)cc1 [Example 23, 1'-(4-methylbenzyl)-spiroimidazolidine-4,4'-piperidine-3-phenyl-5-on]
Ki: 4.2 nM

O=C1NCN(c2ccccc2)C12CCN(Cc1cccnc1)CC2 [Example 17, 1'-(3-pyridyl)methyl-spiroimidazolidine-4,4'-piperidine-3-phenyl-5-on]
Ki: 15 nM

Cc1ccc(CN2CCC3(CC2)C(=O)NCN3c2ccccc2)cn1 [Example 16, 1'-(6-methyl-3-pyridyl)methyl-spiroimidazolidine-4,4'-piperidine-3-phenyl-5-on]
Ki: 0.6 nM

O=C1NCN(c2ccccc2)C12CCN(Cc1ccc(Cl)nc1)CC2 [Example 15, 1'-(6-chloro-3-pyridyl)methyl-spiroimidazolidine-4,4'-piperidine-3-phenyl-5-on]
Ki: 0.4 nM

O=C1NCN(c2ccccc2)C12CCN(Cc1ccc(Br)cc1)CC2 [Example 18, 1'-(4-bromobenzyl)-spiroimidazolidine-4,4'-piperidine-3-phenyl-5-on]
Ki: 3.4 nM

COc1ccc(CN2CCC3(CC2)C(=O)NCN3c2ccccc2)cc1 [Example 14, 1'-(4-methoxybenzyl)-spiroimidazolidine-4,4'-piperidine-3-phenyl-5-on]
Ki: 2.7 nM

Reference: patent EP1142587A1 (priority 1998, dated 2000)
